# Molecular target: R132H mutant IDH1 enzyme (Homo sapiens (Human), UniProt O75874, R132H)
# Protein sequences, listed by entry. Tags and fused reporters are not part of them.
# UniProt O75874, whole entry R132H: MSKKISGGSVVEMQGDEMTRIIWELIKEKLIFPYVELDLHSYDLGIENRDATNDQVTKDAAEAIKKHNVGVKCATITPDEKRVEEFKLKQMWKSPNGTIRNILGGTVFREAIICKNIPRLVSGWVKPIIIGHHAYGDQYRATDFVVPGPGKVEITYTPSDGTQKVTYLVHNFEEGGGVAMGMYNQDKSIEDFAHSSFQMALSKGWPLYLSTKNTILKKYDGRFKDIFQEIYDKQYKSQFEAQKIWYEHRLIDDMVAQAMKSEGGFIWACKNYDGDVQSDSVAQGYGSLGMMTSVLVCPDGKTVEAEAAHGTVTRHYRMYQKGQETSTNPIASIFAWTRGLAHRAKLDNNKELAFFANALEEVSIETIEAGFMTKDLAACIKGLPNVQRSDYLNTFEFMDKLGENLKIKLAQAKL
# Test: R132H IDH1 Enzymatic Assay
# Assay type: biochemical
# Settings: R132H mutant IDH1 enzyme 1.5 nM final; luminescence readout; read-out: IC50
row,Structure (SMILES),IC50 [nM]
1,"CO[C@H]1CC[C@H](C(=O)N2Cc3cccnc3Nc3ccc(-c4cnc5cc[nH]c5c4)cc32)CC1 [Example 409, 6-[(trans-4-methoxycyclohexyl)carbonyl]-8-(1H-pyrrolo[3,2-b]pyridin-6-yl)-6,11-dihydro-5H-pyrido[2,3-b][1,5]benzodiazepine]",44
2,"CO[C@H]1CC[C@H](C(=O)N2Cc3cccnc3Nc3ccc(-c4ccnc5[nH]ccc45)cc32)CC1 [Example 410, 6-[(trans-4-methoxycyclohexyl)carbonyl]-8-(1H-pyrrolo[2,3-b]pyridin-4-yl)-6,11-dihydro-5H-pyrido[2,3-b][1,5]benzodiazepine]",31
3,"CO[C@H]1CC[C@H](C(=O)N2Cc3cccnc3Nc3ccc(N4CC(C)(C#N)C4)cc32)CC1 [Example 411, 1-{6-[(Trans-4-methoxycyclohexyl)carbonyl]-6,11-dihydro-5H-pyrido[2,3-b][1,5]benzodiazepin-8-yl}-3-methylazetidine-3-carbonitrile]",618
4,"CO[C@H]1CC[C@H](C(=O)N2Cc3cccnc3Nc3ccc(N4CC5(CC(OC(C)C)C5)C4)cc32)CC1 [Example 412, 6-[(trans-4-methoxycyclohexyl)carbonyl]-8-[6-(1-methylethoxy)-2-azaspiro[3.3]hept-2-yl]-6,11-dihydro-5H-pyrido[2,3-b][1,5]benzodiazepine]",577
5,"CO[C@H]1CC[C@H](C(=O)N2Cc3cccnc3Nc3ccc(N4CC(C#N)C4)cc32)CC1 [Example 413, 1-{6-[(trans-4-methoxycyclohexyl)carbonyl]-6,11-dihydro-5H-pyrido[2,3-b][1,5]benzodiazepin-8-yl}azetidine-3-carbonitrile]",300
6,"COC1CN(c2ccc3c(c2)N(C(=O)[C@H]2CC[C@H](OC)CC2)Cc2cccnc2N3)C1 [Example 414, 8-(3-methoxyazetidin-1-yl)-6-[(trans-4-methoxycyclohexyl)carbonyl]-6,11-dihydro-5H-pyrido[2,3-b][1,5]benzodiazepine]",725
7,"COCCC1CN(c2ccc3c(c2)N(C(=O)[C@H]2CC[C@H](OC)CC2)Cc2cccnc2N3)C1 [Example 415, 6-[(trans-4-methoxycyclohexyl)carbonyl]-8-[3-(2-methoxyethyl)azetidin-1-yl]-6,11-dihydro-5H-pyrido[2,3-b][1,5]benzodiazepine]",686
8,"CO[C@H]1CC[C@H](C(=O)N2Cc3cccnc3Nc3ccc(N4CC(C(F)(F)F)C4)cc32)CC1 [Example 416, 6-[(trans-4-methoxycyclohexyl)carbonyl]-8-[3-(trifluoromethyl)azetidin-1-yl]-6,11-dihydro-5H-pyrido[2,3-b][1,5]benzodiazepine]",292
9,"CO[C@H]1CC[C@H](C(=O)N2Cc3cccnc3Nc3ccc(N4CC(C(F)F)C4)cc32)CC1 [Example 417, 8-[3-(difluoromethyl)azetidin-1-yl]-6-[(trans-4-methoxycyclohexyl)carbonyl]-6,11-dihydro-5H-pyrido[2,3-b][1,5]benzodiazepine]",555
10,"COCc1ccc2c(c1)N(C(=O)[C@H]1CC[C@H](OC)CC1)Cc1cccnc1N2 [Example 418, 6-[(Trans-4-methoxycyclohexyl)carbonyl]-8-(methoxymethyl)-6,11-dihydro-5H-pyrido[2,3-b][1,5]benzodiazepine]",768
11,"COC1CCC(C(=O)N2Cc3cccnc3Nc3ccc(CCc4ccccn4)cc32)CC1 (stereo not shown) [Example 419, 6-[(4-methoxycyclohexyl)carbonyl]-8-(2-pyridin-2-ylethyl)-6,11-dihydro-5H-pyrido[2,3-b][1,5]benzodiazepine]",107
12,"COC1CCC(C(=O)N2Cc3cccnc3Nc3ccc(CCC(=O)N4CCOCC4)cc32)CC1 (stereo not shown) [Example 421, 6-[(4-methoxycyclohexyl)carbonyl]-8-(3-morpholin-4-yl-3-oxopropyl)-6,11-dihydro-5H-pyrido[2,3-b][1,5]benzodiazepine]",582
13,"COC1CCC(C(=O)N2Cc3cccnc3Nc3ccc(CCC(C)(C)C)cc32)CC1 (stereo not shown) [Example 422, 8-(3,3-dimethylbutyl)-6-[(4-methoxycyclohexyl)carbonyl]-6,11-dihydro-5H-pyrido[2,3-b][1,5]benzodiazepine]",104
14,"COC1CCC(C(=O)N2Cc3cccnc3Nc3ccc(CCC(=O)O)cc32)CC1 (stereo not shown) [Example 423, 3-{6-[(4-methoxycyclohexyl)carbonyl]-6,11-dihydro-5H-pyrido[2,3-b][1,5]benzodiazepin-8-yl}propanoic acid]",385
15,"COC1CCC(C(=O)N2Cc3cccnc3Nc3ccc(CC4CCOCC4)cc32)CC1 (stereo not shown) [Example 424, 6-[(4-methoxycyclohexyl)carbonyl]-8-(tetrahydro-2H-pyran-4-ylmethyl)-6,11-dihydro-5H-pyrido[2,3-b][1,5]benzodiazepine]",44
16,"COC1CCC(C(=O)N2Cc3cccnc3Nc3ccc(CCc4ccccn4)cc32)CC1 (stereo not shown) [Example 425, 6-[(4-methoxycyclohexyl)carbonyl]-8-(2-pyridin-2-ylethyl)-6,11-dihydro-5H-pyrido[2,3-b][1,5]benzodiazepine]",87

row,Structure (SMILES),IC50 [nM]
1,"COC1CCC(C(=O)N2Cc3cccnc3Nc3ccc(CCC(=O)N4CCOCC4)cc32)CC1 (stereo not shown) [Example 427, 6-[(4-methoxycyclohexyl)carbonyl]-8-(3-morpholin-4-yl-3-oxopropyl)-6,11-dihydro-5H-pyrido[2,3-b][1,5]benzodiazepine]",599
2,"COC1CCC(C(=O)N2Cc3cccnc3Nc3ccc(CCC(C)(C)C)cc32)CC1 (stereo not shown) [Example 428, 8-(3,3-dimethylbutyl)-6-[(4-methoxycyclohexyl)carbonyl]-6,11-dihydro-5H-pyrido[2,3-b][1,5]benzodiazepine]",75
3,"COC1CCC(C(=O)N2Cc3cccnc3Nc3ccc(CC4CCOCC4)cc32)CC1 (stereo not shown) [Example 429, 6-[(4-methoxycyclohexyl)carbonyl]-8-(tetrahydro-2H-pyran-4-ylmethyl)-6,11-dihydro-5H-pyrido[2,3-b][1,5]benzodiazepine]",14
4,"CO[C@H]1CC[C@H](C(=O)N2Cc3cccnc3Nc3ccc(S(C)(=O)=O)cc32)CC1 [Example 430, (Trans-4-methoxycyclohexyl)[8-(methylsulfonyl)-5,11-dihydro-6H-pyrido[2,3-b][1,5]benzodiazepin-6-yl]methanone]",889
5,"CCS(=O)(=O)c1ccc2c(c1)N(C(=O)[C@H]1CC[C@H](OC)CC1)Cc1cccnc1N2 [Example 431, 8-(ethylsulfonyl)-6-[(trans-4-methoxycyclohexyl)carbonyl]-6,11-dihydro-5H-pyrido[2,3-b][1,5]benzodiazepine]",594
6,"CO[C@H]1CC[C@H](C(=O)N2Cc3cccnc3Nc3ccc(S(=O)(=O)c4ccc(F)cc4)cc32)CC1 [Example 432, 8-[(4-fluorophenyl)sulfonyl]-6-[(trans-4-methoxycyclohexyl)carbonyl]-6,11-dihydro-5H-pyrido[2,3-b][1,5]benzodiazepine]",52
7,"CO[C@H]1CC[C@H](C(=O)N2Cc3cccnc3Nc3ccc(S(=O)(=O)C4CC4)cc32)CC1 [Example 433, 8-(cyclopropylsulfonyl)-6-[(trans-4-methoxycyclohexyl)carbonyl]-6,11-dihydro-5H-pyrido[2,3-b][1,5]benzodiazepine]",189
8,"CO[C@H]1CC[C@H](C(=O)N2Cc3cccnc3Nc3ccc(C#N)cc32)CC1 [Example 434, 6-[(Trans-4-methoxycyclohexyl)carbonyl]-6,11-dihydro-5H-pyrido[2,3-b][1,5]benzodiazepine-8-carbonitrile]",1390
9,"CC(C)(C#N)c1ccc2c(c1)N(C(=O)[C@H]1CC[C@H](NCC(F)(F)F)CC1)Cc1cccnc1N2 [Example 435, 2-Methyl-2-[6-({trans-4-[(2,2,2-trifluoroethyl)amino]cyclohexyl}carbonyl)-6,11-dihydro-5H-pyrido[2,3-b][1,5]benzodiazepin-8-yl]propanenitrile]",73
10,"CC(C)(C#N)c1ccc2c(c1)N(C(=O)[C@H]1CC[C@@H](NCC(F)(F)F)CC1)Cc1cccnc1N2 [Example 436, 2-methyl-2-[6-({cis-4-[(2,2,2-trifluoroethyl)amino]cyclohexyl}carbonyl)-6,11-dihydro-5H-pyrido[2,3-b][1,5]benzodiazepin-8-yl]propanenitrile]",62
11,"O=C([C@H]1CC[C@H](NCC(F)(F)F)CC1)N1Cc2cccnc2Nc2ccc(N3CCOCC3)cc21 [Example 437, trans-4-[(8-morpholin-4-yl-5,11-dihydro-6H-pyrido[2,3-b][1,5]benzodiazepin-6-yl)carbonyl]-N-(2,2,2-trifluoroethyl)cyclohexanamine]",534
12,"O=C([C@H]1CC[C@@H](NCC(F)(F)F)CC1)N1Cc2cccnc2Nc2ccc(N3CCOCC3)cc21 [Example 438, cis-4-[(8-morpholin-4-yl-5,11-dihydro-6H-pyrido[2,3-b][1,5]benzodiazepin-6-yl)carbonyl]-N-(2,2,2-trifluoroethyl)cyclohexanamine]",890
13,"C[C@H](N[C@H]1CC[C@H](C(=O)N2Cc3cccnc3Nc3ccc(N4CCOCC4)cc32)CC1)C(F)(F)F [Example 439, trans-4-[(8-morpholin-4-yl-5,11-dihydro-6H-pyrido[2,3-b][1,5]benzodiazepin-6-yl)carbonyl]-N-[(1S)-2,2,2-trifluoro-1-methylethyl]cyclohexanamine]",237
14,"C[C@H](N[C@H]1CC[C@@H](C(=O)N2Cc3cccnc3Nc3ccc(N4CCOCC4)cc32)CC1)C(F)(F)F [Example 440, cis-4-[(8-morpholin-4-yl-5,11-dihydro-6H-pyrido[2,3-b][1,5]benzodiazepin-6-yl)carbonyl]-N-[(1S)-2,2,2-trifluoro-1-methylethyl]cyclohexanamine]",920
15,"C[C@@H](N[C@H]1CC[C@H](C(=O)N2Cc3cccnc3Nc3ccc(N4CCOCC4)cc32)CC1)C(F)(F)F [Example 441, trans-4-[(8-morpholin-4-yl-5,11-dihydro-6H-pyrido[2,3-b][1,5]benzodiazepin-6-yl)carbonyl]-N-[(1R)-2,2,2-trifluoro-1-methylethyl]cyclohexanamine]",449

# — patent US10442819B2, “Tricyclic compounds as inhibitors of mutant IDH enzymes” (Merck Sharp & Dohme Corp., priority 2014, dated 2019)
